Test system: SH-SY5Y
Test: Antiproliferative activity against human SH-SY5Y cells assessed as cell viability after 72 hrs by XTT assay

Compound | Activity
CC(C)(C)n1nc(-c2ccc(Cl)cc2)c2c(N)ncnc21 | Dose-dependent effect
CSc1nc(Nc2ccccc2)c2cnn(CC(C)c3ccccc3)c2n1 (configuration not stated) | Dose-dependent effect

From ChEMBL document CHEMBL1833847, “Identification of potent c-Src inhibitors strongly affecting the proliferation of human neuroblastoma cells” (Bioorg Med Chem Lett, 2011)
